Reference: patent US6861257B1, “Methods for isolation of osteoclast precursor cells and inducing their differentiation into osteoclasts” (Shionogi & Co., Ltd., priority 1998, dated 2005)

B1: IL-3: recombinant human IL-3 (R & D Systems) (protein, UniProt P08700 20-152, looked up)
Interleukin-3: APMTQTTPLKTSWVNCSNMIDEIITHLKQPPLPLLDFNNLNGEDQDILMENNLRRPNLEAFNRAVKSLQNASAIESILKNLLPCLPLATAAPTRHPIHIKDGDWNEFRRKLTFYLKTLENAQAQQTTLSLAIF

Tested on: preosteoclasts
Assay: Induction of differentiation of preosteoclasts (from joint fluid of rheumatoid arthritis patients) into osteoclasts in the absence of accessory cells
Assay type: cell-based
Settings: cytokine in place of human T-STIM in the medium, 37° C., 48-96 hours, no accessory cells
Experimental: The obtained cellular fraction was cultured in DMEM medium (Gibco BRL, #12430-21 or equivalent) supplemented with 10% (v/v) of fetal calf serum (FCS) in 5-7% CO2-containing air at 37° C. for several weeks. During the culture period, all cells except preosteoclasts died out, and only preosteoclasts survived (FIGS. 1, 2).
In the culture condition, the differentiation of preosteoclasts into osteoclasts was observed (FIG. 1, 2).
Human T-STIM contains a variety of cytokines. In order to identify the cytokine which stimulates differentiation of preosteoclasts into osteoclasts, the differentiation was examined by modifycation the contents of Medium A described as previously in Example 1(3).
The following 16 kinds of medium (B-R) were prepared by using the cytokines shown below, alone or a mixture thereof, instead of human T-STIM contained in Medium A (Example 1(3)). […] According to the sequence, cDNA of eotaxin-3 was obtained as shown in SEQ ID No.1. Recombinant baculovirus containing the sequence was prepared to infect insect cells, then the recombinant eotaxin-3 protein was purified from the culture supernatant.)
The preosteoclasts obtained by Example 1(2) were cultured in the Medium […] described above at 37° C. for 48-96 hours.

Row | Molecule | ability for inducing the differentiation of preosteoclasts
1 | IL-2: recombinant human IL-2 (R & D Systems) | do not have an ability for inducing the differentiation of preosteoclasts
2 | B1 | have an ability for inducing the differentiation of preosteoclasts
